Molecular target: PTH receptor (PTHR1) (human) (UniProt Q03431)
Experiment: cell-based or functional assay

Amino acid sequences for entries named in this document (tags omitted). Residues count along the entry.
UniProt Q03431, 27-593: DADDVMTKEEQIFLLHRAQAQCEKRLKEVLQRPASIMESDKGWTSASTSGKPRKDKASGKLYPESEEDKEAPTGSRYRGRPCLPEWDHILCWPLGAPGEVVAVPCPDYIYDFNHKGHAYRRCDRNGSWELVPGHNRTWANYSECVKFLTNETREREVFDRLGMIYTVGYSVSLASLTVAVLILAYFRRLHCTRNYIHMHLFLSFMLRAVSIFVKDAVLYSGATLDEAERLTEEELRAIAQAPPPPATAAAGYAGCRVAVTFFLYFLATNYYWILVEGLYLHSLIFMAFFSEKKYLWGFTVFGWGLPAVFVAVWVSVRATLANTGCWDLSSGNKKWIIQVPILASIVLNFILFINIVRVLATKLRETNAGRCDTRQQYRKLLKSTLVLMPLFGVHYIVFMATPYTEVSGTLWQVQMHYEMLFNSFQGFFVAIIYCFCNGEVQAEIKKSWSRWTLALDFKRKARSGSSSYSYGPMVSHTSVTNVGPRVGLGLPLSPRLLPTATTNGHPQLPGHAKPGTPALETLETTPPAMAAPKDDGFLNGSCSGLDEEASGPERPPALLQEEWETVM

- Maximal response: 100%
Substance: human PTHrP (coded sample EU-285) (from UniProt P12272 37-70) (ligand)
